Assay results reported in ChEMBL document CHEMBL5365518, “Synthesis and Validation of the First Cell-Impermeable Hsp90α-Selective Inhibitors” (ACS Med Chem Lett, 2023).

Experiment: Selectivity index, ratio of IC50 for binding affinity to HSP90beta (unknown origin) to IC50 for binding affinity to HSP90alpha (unknown origin)

First: Cc1ccc(Sc2cc(C(=O)N3Cc4ccc(OCCN(C)C)cc4C3)ccc2O)cc1C
Second: Cc1ccc(Sc2cc(C(=O)N3Cc4ccc(OCCCN(C)C)cc4C3)ccc2O)cc1C
The Ratio IC50 of the first is lower: 113 for the first, greater than 196 for the second.

`Cc1ccc(Sc2cc(C(=O)N3Cc4ccc(OCC[N+](C)(C)C)cc4C3)ccc2O)cc1C.O=C([O-])C(F)(F)F` and `Cc1ccc(Sc2cc(C(=O)N3Cc4ccc(OCCC[N+](C)(C)C)cc4C3)ccc2O)cc1C.O=C([O-])C(F)(F)F` cannot be ordered by Ratio IC50: greater than 153 for the first, greater than 294 for the second.
